In PMC12155096 (International Journal of Molecular Sciences, 2025):
Where a name gives a salt, the structure may show the parent alone. Read-outs that look alike come from different tables or passages of the source.

Amino acid sequences for entries named in this document (tags omitted).
UniProt P08659, whole entry: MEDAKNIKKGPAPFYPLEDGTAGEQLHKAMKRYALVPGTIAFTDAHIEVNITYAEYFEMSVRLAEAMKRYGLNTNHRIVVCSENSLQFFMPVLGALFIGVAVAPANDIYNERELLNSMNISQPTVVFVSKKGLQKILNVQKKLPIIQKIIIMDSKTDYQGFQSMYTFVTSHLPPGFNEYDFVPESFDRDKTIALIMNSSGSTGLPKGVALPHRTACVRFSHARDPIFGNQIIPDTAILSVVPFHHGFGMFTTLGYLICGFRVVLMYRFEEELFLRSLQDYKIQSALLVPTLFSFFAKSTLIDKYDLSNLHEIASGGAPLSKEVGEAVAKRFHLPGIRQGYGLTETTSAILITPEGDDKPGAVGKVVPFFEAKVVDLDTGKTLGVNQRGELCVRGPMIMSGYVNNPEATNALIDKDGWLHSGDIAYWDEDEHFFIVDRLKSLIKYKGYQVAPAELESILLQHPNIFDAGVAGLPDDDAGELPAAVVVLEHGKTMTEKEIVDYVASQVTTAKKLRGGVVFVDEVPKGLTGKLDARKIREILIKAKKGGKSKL
UniProt P10635, whole entry: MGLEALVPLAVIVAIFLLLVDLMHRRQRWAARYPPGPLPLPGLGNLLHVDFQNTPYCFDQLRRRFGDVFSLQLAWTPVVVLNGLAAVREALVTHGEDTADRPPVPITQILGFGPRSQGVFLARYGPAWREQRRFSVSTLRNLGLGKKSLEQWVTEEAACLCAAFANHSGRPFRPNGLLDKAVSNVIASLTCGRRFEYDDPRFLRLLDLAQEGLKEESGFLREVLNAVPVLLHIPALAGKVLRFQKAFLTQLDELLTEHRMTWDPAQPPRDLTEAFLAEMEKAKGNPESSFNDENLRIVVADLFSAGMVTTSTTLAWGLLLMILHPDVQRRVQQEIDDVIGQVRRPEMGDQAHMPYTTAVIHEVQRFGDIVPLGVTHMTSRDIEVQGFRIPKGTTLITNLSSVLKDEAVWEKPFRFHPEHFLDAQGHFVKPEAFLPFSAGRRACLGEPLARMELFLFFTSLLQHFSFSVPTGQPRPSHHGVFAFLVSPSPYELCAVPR
UniProt P11712, whole entry: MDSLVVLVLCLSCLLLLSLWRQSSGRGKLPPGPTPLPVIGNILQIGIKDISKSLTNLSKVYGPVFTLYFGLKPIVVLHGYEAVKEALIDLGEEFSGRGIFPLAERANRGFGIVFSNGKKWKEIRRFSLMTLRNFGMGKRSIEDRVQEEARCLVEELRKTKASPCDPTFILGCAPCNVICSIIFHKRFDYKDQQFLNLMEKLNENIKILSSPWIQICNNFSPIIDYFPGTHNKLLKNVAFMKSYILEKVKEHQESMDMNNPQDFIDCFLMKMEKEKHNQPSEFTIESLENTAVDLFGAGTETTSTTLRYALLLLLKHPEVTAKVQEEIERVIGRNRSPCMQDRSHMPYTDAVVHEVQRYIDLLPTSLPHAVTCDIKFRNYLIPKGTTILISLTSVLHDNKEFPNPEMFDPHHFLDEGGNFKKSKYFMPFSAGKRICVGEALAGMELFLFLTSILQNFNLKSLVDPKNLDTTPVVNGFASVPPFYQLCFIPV
UniProt P33261, whole entry: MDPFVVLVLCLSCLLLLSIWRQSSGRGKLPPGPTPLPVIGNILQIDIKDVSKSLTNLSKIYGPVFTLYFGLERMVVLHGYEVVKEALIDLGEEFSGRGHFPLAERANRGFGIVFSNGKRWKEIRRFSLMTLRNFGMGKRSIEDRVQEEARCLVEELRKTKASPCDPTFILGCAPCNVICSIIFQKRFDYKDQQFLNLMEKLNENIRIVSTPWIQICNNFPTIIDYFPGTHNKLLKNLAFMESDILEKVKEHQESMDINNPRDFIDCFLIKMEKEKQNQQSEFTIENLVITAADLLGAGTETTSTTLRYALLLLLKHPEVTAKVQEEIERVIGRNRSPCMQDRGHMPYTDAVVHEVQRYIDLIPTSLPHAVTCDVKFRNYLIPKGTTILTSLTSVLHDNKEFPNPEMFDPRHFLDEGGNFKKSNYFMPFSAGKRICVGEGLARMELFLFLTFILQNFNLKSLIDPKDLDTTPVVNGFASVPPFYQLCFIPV
UniProt P05177, whole entry: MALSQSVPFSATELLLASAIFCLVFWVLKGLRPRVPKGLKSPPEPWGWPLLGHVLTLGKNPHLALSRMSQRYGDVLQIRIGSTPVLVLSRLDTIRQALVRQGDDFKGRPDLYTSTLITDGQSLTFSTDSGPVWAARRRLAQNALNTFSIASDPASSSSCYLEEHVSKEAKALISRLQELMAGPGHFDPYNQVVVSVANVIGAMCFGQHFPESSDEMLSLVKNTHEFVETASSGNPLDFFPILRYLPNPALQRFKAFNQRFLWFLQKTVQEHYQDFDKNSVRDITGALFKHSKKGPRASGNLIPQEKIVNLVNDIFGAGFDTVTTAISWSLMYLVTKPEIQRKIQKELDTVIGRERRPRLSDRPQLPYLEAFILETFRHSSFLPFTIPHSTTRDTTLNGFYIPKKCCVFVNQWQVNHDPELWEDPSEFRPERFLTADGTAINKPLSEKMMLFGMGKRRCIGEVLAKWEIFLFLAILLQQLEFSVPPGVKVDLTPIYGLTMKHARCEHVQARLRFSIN
UniProt P08684, whole entry: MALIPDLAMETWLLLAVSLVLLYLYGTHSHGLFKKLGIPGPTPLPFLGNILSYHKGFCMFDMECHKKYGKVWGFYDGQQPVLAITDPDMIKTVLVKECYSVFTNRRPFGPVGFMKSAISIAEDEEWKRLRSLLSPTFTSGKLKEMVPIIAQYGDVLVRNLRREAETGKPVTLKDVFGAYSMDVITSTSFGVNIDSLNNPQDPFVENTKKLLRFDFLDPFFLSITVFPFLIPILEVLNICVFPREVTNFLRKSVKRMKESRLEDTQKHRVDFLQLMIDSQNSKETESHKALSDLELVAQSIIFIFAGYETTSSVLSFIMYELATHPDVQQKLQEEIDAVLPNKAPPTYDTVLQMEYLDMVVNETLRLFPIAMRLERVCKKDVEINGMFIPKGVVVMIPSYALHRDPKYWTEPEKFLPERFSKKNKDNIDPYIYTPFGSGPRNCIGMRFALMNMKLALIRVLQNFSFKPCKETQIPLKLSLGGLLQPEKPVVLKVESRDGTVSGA

Columns and labels:
[1] = molecular target: T1, Photinus pyralis (firefly) luciferase (Photinus pyralis, UniProt P08659); test: biochemical
human CYP2D6 [2] = molecular target: T2, human CYP2D6 (Homo sapiens, UniProt P10635); test: biochemical; conditions: for AC50: CYP2D6 AC50 (half-maximal activity concentration)
human CYP2C9 [3] = molecular target: T3, human CYP2C9 (Homo sapiens, UniProt P11712); test: biochemical; conditions: for AC50: CYP2C9 AC50 (half-maximal activity concentration)
human CYP2C19 [4] = molecular target: T4, human CYP2C19 (Homo sapiens, UniProt P33261)
human CYP1A2 [5] = molecular target: T5, human CYP1A2 (Homo sapiens, UniProt P05177); test: biochemical; conditions: for IC50: CYP1A2 IC50 (half-maximal inhibitory concentration); for AC50: CYP1A2 AC50 (half-maximal activity concentration)
human CYP2C19 [6] = molecular target: T4, human CYP2C19; test: biochemical; conditions: for IC50: CYP2C19 IC50 (half-maximal inhibitory concentration); for AC50: CYP2C19 AC50 (half-maximal activity concentration)
human CYP2C9 [7] = molecular target: T3, human CYP2C9
human CYP1A2 [8] = molecular target: T5, human CYP1A2; conditions: for CYP1A2 Efficacy (in parenthesis): human
human CYP2D6 [9] = molecular target: T2, human CYP2D6
[10] = molecular target: T1, Photinus pyralis (firefly) luciferase
CYP3A4 [11] = molecular target: T6, CYP3A4 (Homo sapiens, UniProt P08684)
CYP3A4 [12] = molecular target: T6, CYP3A4; test: biochemical; conditions: CYP3A4 AC50 (half-maximal activity concentration)
[13] = CYP2D6 IC50 (half-maximal inhibitory concentration)
[14] = read-out: Luciferase IC50 (half-maximal inhibitory concentration)

CN(C)c1ccc(C(=C2C=CC(=[N+](C)C)C=C2)c2ccccc2)cc1 [Malachite green]
IC50 [1]: 28.9 µM

O=c1[nH]c2ccccc2n1C1CCN(CCCC(c2ccc(F)cc2)c2ccc(F)cc2)CC1 [Pimozide]
AC50 (human CYP2D6 [2]): 3.75 µM
AC50 (human CYP2C9 [3]): 16.1 µM
CYP2C19 AC50 (half-maximal activity concentration) (human CYP2C19 [4]): Inconclusive inhibitor

COc1cc(NC(C)CCCN)c2ncccc2c1 (stereo not drawn) [Primaquine diphosphate]
IC50 (human CYP2D6 [2]; [13]): 7.26 µM
IC50 (human CYP2C9 [3]): 26.5 µM
IC50 (human CYP1A2 [5]): 0.45 µM
IC50 (human CYP2C19 [6]): 11.6 µM

O=S(=O)([O-])c1ccc2ccccc2c1.[Na+] [Sodium 2-naphthalenesulfonate]
CYP2C9 AC50 (half-maximal activity concentration) (human CYP2C9 [7]): Inconclusive inhibitor
CYP1A2 AC50 (half-maximal activity concentration) (human CYP1A2 [8]): Inactive
CYP2C19 AC50 (half-maximal activity concentration) (human CYP2C19 [4]): Inactive
CYP2D6 AC50 (half-maximal activity concentration) (human CYP2D6 [9]): Inactive

O=[N+]([O-])c1cccc2cccc([N+](=O)[O-])c12 [1,8-Dinitronaphthalene]
AC50 (human CYP2C9 [3]): 9.96 µM
AC50 (human CYP1A2 [5]): 1.99 µM
AC50 (human CYP2C19 [6]): 28.4 µM

CCOP(=S)(OCC)Oc1nc(Cl)n(C(C)C)n1 [Isazofos]
Luciferase IC50 [10]: Inactive

CCOP(=S)(OCC)Oc1cc(Cl)c(Br)cc1Cl [Bromophos-ethyl]
Luciferase IC50 (half-maximal inhibitory concentration) [10]: Inactive

Phenylmercuric acetate
IC50 (CYP3A4 [11]): 6.1 µM
IC50 (human CYP2C9 [7]): 3.24 µM
IC50 (human CYP1A2 [8]): 17.7 µM
IC50 (human CYP2C19 [4]): 9.31 µM
IC50 ([10]; read-out: Luciferase IC50): 2.15 µM
IC50 (human CYP2D6 [9]): 0.33 µM

CN(CCOc1ccc(CC2SC(=O)NC2=O)cc1)c1ccccn1 (stereo not drawn) [Rosiglitazone maleate]
AC50 (human CYP2C9 [3]): 53.7 µM
AC50 (human CYP1A2 [5]): 79.5 µM

OCCN1CCN(CCCN2c3ccccc3Sc3ccc(C(F)(F)F)cc32)CC1 [Fluphenazine hydrochloride]
Luciferase IC50 (half-maximal inhibitory concentration) [10]: Inactive

CN(C)c1ccc2nc3ccc(=[N+](C)C)cc-3sc2c1 [Methylene blue]
IC50 (human CYP2D6 [2]; [13]): 9.87 µM
IC50 (human CYP2C9 [3]): 7.96 µM
IC50 (human CYP1A2 [5]): 2.25 µM

CC1(C)CCC(=Cc2ccc(Cl)cc2)C1(O)Cn1cncn1 (stereo not drawn) [Triticonazole]
CYP1A2 Efficacy (in parenthesis) (human CYP1A2 [8]): 39.86 ± 4.58 (-51 ± 5) %
IC50 (human CYP1A2 [5]): 39.9 µM

CC1(C)CCC(Cc2ccc(Cl)cc2)C1(O)Cn1cncn1 (stereo not drawn) [Metconazole]
CYP1A2 Efficacy (in parenthesis) (human CYP1A2 [8]): 39.91 ± 0 (-61 ± 3) %
IC50 (human CYP1A2 [5]): 39.9 µM

CCN(CC)C(=O)c1cccc(C)c1 [DEET]
CYP2C9 AC50 (half-maximal activity concentration) (human CYP2C9 [7]): Inactive
AC50 (human CYP1A2 [8]): 40.1 µM
AC50 (human CYP2C19 [4]): 62.1 µM
CYP2C19 Efficacy (human CYP2C19 [4]): 62.06 ± 23.35 (-92 ± 15) %
CYP2D6 AC50 (half-maximal activity concentration) (human CYP2D6 [9]): Inactive

OC(Cn1cncn1)(Cn1cncn1)c1ccc(F)cc1F [fluconazole, reference compound]
IC50 (human CYP2C9 [3]; IC50 CYP2C9 assay): 15 µM

CN(C)CCCN1c2ccccc2Sc2ccccc21 [Promazine hydrochloride]
Luciferase IC50 (half-maximal inhibitory concentration) [10]: Inactive

CCOP(=S)(OCC)Oc1cc(C)nc(N(CC)CC)n1 [Pirimiphos-ethyl]
Luciferase IC50 (half-maximal inhibitory concentration) [10]: Inactive

CC(=O)c1ccc2c(c1)N(CCCN1CCC(CCO)CC1)c1ccccc1S2 [Piperacetazine]
Luciferase IC50 (half-maximal inhibitory concentration) [10]: Inactive

Oc1cc2ccccc2c2ccccc12 [9-Phenanthrol]
IC50 (CYP3A4 [11]): 6.1 µM

CCc1nc(N)nc(N)c1-c1ccc(Cl)cc1 [Pyrimethamine]
CYP1A2 AC50 (half-maximal activity concentration) (human CYP1A2 [8]): Inactive
AC50 (human CYP2C9 [3]): 74.5 µM
AC50 (human CYP2C19 [6]): 53.2 µM

O=C(O)c1cccc(C(=O)O)n1 [2,6-Pyridinedicarboxylic acid]
CYP2C9 AC50 (half-maximal activity concentration) (human CYP2C9 [7]): Inactive
CYP1A2 AC50 (half-maximal activity concentration) (human CYP1A2 [8]): Inactive
CYP2C19 AC50 (half-maximal activity concentration) (human CYP2C19 [4]): Inconclusive inhibitor
AC50 (CYP3A4 [12]): 5.81 µM
CYP2D6 AC50 (half-maximal activity concentration) (human CYP2D6 [9]): Inactive

CN(C)c1ccc(C(=C2C=CC(=[N+](C)C)C=C2)c2ccccc2)cc1.CN(C)c1ccc(C(=C2C=CC(=[N+](C)C)C=C2)c2ccccc2)cc1.O=C(O)C(=O)O.O=C([O-])C(=O)O.O=C([O-])C(=O)O [Malachite green oxalate]
IC50 [10, 14]: 24.9 µM

CC1(C)C(C=C(Cl)Cl)C1C(=O)OCc1cccc(Oc2ccccc2)c1 (stereo not drawn) [Permethrin]
AC50 (human CYP1A2 [5]): 43.2 µM

O=[N+]([O-])c1cc([N+](=O)[O-])c2ccccc2c1 [1,3-Dinitronaphthalene]
IC50 (human CYP2D6 [2]; [13]): 32.6 µM
CYP2C9 Efficacy (in parenthesis) (human CYP2C9 [7]; human): 32.22 ± 6.93 (29 ± 3) %
IC50 (human CYP2C9 [3]): 32.2 µM
CYP2C19 Efficacy (in parenthesis) (human CYP2C19 [4]; human): 31.83 ± 10.47 (-82 ± 16) %
IC50 (human CYP2C19 [6]): 31.8 µM
CYP2D6 Efficacy (in parenthesis) (human CYP2D6 [9]; human): 32.64 ± 9.1 (-41 ± 6) %

CN(C)c1ccc(C(=C2C=CC(=[N+](C)C)C=C2)c2ccccc2)cc1.O=C([O-])C(=O)O [C.I. Basic Green 4 oxalate (1:x)]
IC50 [10, 14]: 20.1 µM

CC(C)COCC(CN(Cc1ccccc1)c1ccccc1)N1CCCC1 (stereo not drawn) [Bepridil]
IC50 (human CYP2C9 [3]; CYP2C9 IC50): 22.2 µM

CCCCOCCOC(=O)c1cccnc1 [Nicoboxil]
Luciferase IC50 (half-maximal inhibitory concentration) [10]: Inactive

CS(=O)(=O)CCNCc1ccc(-c2ccc3ncnc(Nc4ccc(OCc5cccc(F)c5)c(Cl)c4)c3c2)o1 [Lapatinib]
IC50 (human CYP2C19 [6]; mean ± standard deviation from three experiments, Inactive = no activity call): 11.2 ± 2.55 µM

COc1ccnc2c1CCCCC2[S+]([O-])c1nc2ccccc2[nH]1 (stereo not drawn) [Nepaprazole]
IC50 (human CYP2D6 [2]): 0.33 ± 0.1 µM

CC(C)Cn1cnc2c(N)nc3ccccc3c21 [Imiquimod]
AC50 (human CYP2D6 [2]): 5.38 µM
CYP2C9 AC50 (half-maximal activity concentration) (human CYP2C9 [7]): Inactive
CYP2C19 AC50 (half-maximal activity concentration) (human CYP2C19 [4]): Inactive
AC50 (human CYP1A2 [5]): 4.26 µM

CCOP(=S)(OCC)Oc1ccc([S+](C)[O-])cc1 (stereo not drawn) [Fensulfothion]
Luciferase IC50 [10]: Inactive
